## Curated experimental data: melting point values

Melting points are in °C. Cells with "–" have no entry in this list. "via" names the databases from which the curators took the value.

structure (SMILES)	name	MP (°C)	via
C=CCCC(=O)Cl	4-Pentenoyl chloride	-22.45	eChemPortal
Clc1c(Cl)c(Cl)c(-c2ccccc2)c(Cl)c1Cl	2,3,4,5,6-Pentachlorobiphenyl	124	QSARDB
O=C(CCl)c1ccc(Cl)cc1Cl	2,2',4'-Trichloroacetophenone	53.81	OCHEM, PubChem
O=S(=O)([N-]S(=O)(=O)C(F)(F)C(F)(F)F)C(F)(F)C(F)(F)F.[Li+]	Lithium bis[(pentafluoroethyl)sulfonyl]azanide	328	ChemicalBook
C=CCC1(CC(C)(C)C)C(=O)NC(=O)NC1=O	Nealbarbital	156	OCHEM
CC(=O)C1CCOC1=O (configuration not stated)	3-Acetyldihydro-2(3H)-furanone	-13.8	eChemPortal
O=C(O)Cc1ccc([N+](=O)[O-])cc1[N+](=O)[O-]	Benzeneacetic acid, 2,4-dinitro-	172	OCHEM
N#Cc1ccc(/C=C/C(=O)O)cc1	(2E)-3-(4-Cyanophenyl)-2-propenoic acid	251	OCHEM
CC1=NNC(=O)C1(Br)Br	4,4-Dibromo-3-methyl-2-pyrazolin-5-one	130.5	OCHEM
Oc1ccc2c3c1O[C@H]1[C@@H](O)CC[C@@]4(O)[C@@H](C2)N(CC2CCC2)CC[C@]314	Nalbuphine	230	PubChem
Cc1ccc(S(=O)(=O)O)cc1.Fc1ccc(C2=CCN(Cc3ccccc3)CC2)cc1	–	182	eChemPortal
NNC(=O)CN1CCCC1=O	–	100	OCHEM
O=C1NC(=O)C2(CCCC2)C(=O)N1	7,9-diazaspiro[4.5]decane-6,8,10-trione	272	OCHEM
O=C(O)CCCC(=O)OOC(=O)CCCC(=O)O	Pentanoic acid, 5,5'-dioxybis[5-oxo-	56.2	eChemPortal
Cc1coc2c1CCC(C)C2 (configuration not stated)	Menthofuran	86	OCHEM
CC(C)N(C(C)C)P(OCCC#N)N(C(C)C)C(C)C	–	12.7	eChemPortal
c1cnc(N2CCNCC2)cn1	1-Piperazinylpyrazine	49	OCHEM
CCN(CC)CC#N	(Diethylamino)acetonitrile	-6	eChemPortal
CCOP(=S)(OCC)SCn1c(=O)oc2ccccc21	–	43	OCHEM
C(OCC1CO1)C(COCC1CO1)OCC1CO1 (configuration not stated)	–	-50.15	eChemPortal
CCCNP(N)(N)=S	–	91.2	eChemPortal
COc1cc(OC)nc(NC(=O)NS(=O)(=O)c2cc(NC=O)ccc2C(=O)N(C)C)n1	Foramsulfuron	196.8	OCHEM, PubChem
CC(C)NC(=O)NC(=O)CCl	1-(2-chloro-acetyl)-3-isopropyl-urea	87	OCHEM
CC[C@H]1C[C@@H]2C[C@H]3c4[nH]c5ccc(OC)cc5c4CCN(C2)[C@@H]13	Ibogaine	148	OCHEM, PubChem
Cc1cc(N2CCN(C)CC2)ccc1N	2-methyl-4-(4-methylpiperazin-1-yl)aniline	101	OCHEM
CC(C)CCC(C)Nc1ccc(NC(C)CCC(C)C)cc1 (configuration not stated)	N,N'-Bis(1,4-dimethylpentyl)-4-phenylenediamine	-36.11	OFMPub, PubChem, eChemPortal
Clc1ccc(Cl)c(-c2ccccc2Cl)c1	2,2',5-Trichlorobiphenyl	44	QSARDB
CCCCCCCCCCCCCCCCOC(=O)Cl	Carbonochloridic acid, hexadecyl ester	14	eChemPortal
Nc1ccc(Cl)cc1O	Phenol, 2-amino-5-chloro-	153	eChemPortal
Oc1ccc2c(c1)CNCC2	1,2,3,4-tetrahydroisoquinolin-7-ol	195	OCHEM
O=C(CBr)Nc1ccc(Cl)cc1C(=O)c1ccccc1F	2-Bromo-4'-chloro-2'-(2-fluorobenzoyl)acetanilide	132.5	eChemPortal
O=C(Cc1ccccc1)OCc1ccccc1	Benzyl phenylacetate	-11.32	eChemPortal
Cc1cc(C(=O)O)c(C)n1C1CCCCC1	1-Cyclohexyl-2,5-dimethyl-1H-pyrrole-3-carboxylic acid	205	OCHEM
CC(=O)c1ccc(O)c(CCl)c1	1-[3-(Chloromethyl)-4-hydroxyphenyl]ethan-1-one	170	OCHEM
CCNC(=O)NC(=O)CCl	1-(2-Chloro-acetyl)-3-ethyl-urea	139	OCHEM
CCCCC(CC)COP(=S)([S-])OCC(CC)CCCC.CCCCC(CC)COP(=S)([S-])OCC(CC)CCCC.[Zn+2] (configuration not stated)	–	-27	eChemPortal
CCOC(C(=O)O)(c1ccccc1)c1ccccc1	Acetic acid, diphenylethoxy-	114	OCHEM
O=P1(NCCNP2(=O)Oc3ccccc3-c3ccccc32)Oc2ccccc2-c2ccccc21 (configuration not stated)	–	272.6	eChemPortal
Brc1ccc(Oc2ccc(Br)c(Br)c2Br)c(Br)c1	2,2',3,4,4'-Pentabromodiphenyl ether	121.5	OCHEM
CC(=O)C1(Cl)CC1	Ethanone, 1-(1-chlorocyclopropyl)-	-30.3	eChemPortal
OC1(c2ccc(Cl)cc2)c2ccccc2C2=NCCN21 (configuration not stated)	Mazindol	198.5	PubChem
C=CCCC#N	4-Pentenenitrile	-48.5	OFMPub

The first 4 entries again:

structure (SMILES)	name	MP (°C)	via
C=CCCC(=O)Cl	4-Pentenoyl chloride	-22.45	eChemPortal
Clc1c(Cl)c(Cl)c(-c2ccccc2)c(Cl)c1Cl	2,3,4,5,6-Pentachlorobiphenyl	124	QSARDB
O=C(CCl)c1ccc(Cl)cc1Cl	2,2',4'-Trichloroacetophenone	53.81	OCHEM, PubChem
O=S(=O)([N-]S(=O)(=O)C(F)(F)C(F)(F)F)C(F)(F)C(F)(F)F.[Li+]	Lithium bis[(pentafluoroethyl)sulfonyl]azanide	328	ChemicalBook

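The OPERA project collected these measurements from public sources as training and test data for property models. The files give a single number for a compound and property, which may rest on several reports. Method, purity and exact conditions of the single measurements are not given. A value may pool stereoisomers or salt forms, and the file does not say which form was measured. Some upstream entries may be estimates or bounds without being marked so.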

Data: OPERA 2.9 data sets, kmansouri/OPERA on GitHub.